Data from ChEMBL document CHEMBL2331332 (J Med Chem, 2013).

Legend:
[1] = system: Prostaglandin G/H synthase 1 (COX-1); assay: Inhibition of COX-1 (unknown origin)-mediated TMPD oxidation using PGG2 as substrate at 100 uM incubated 15 mins prior to substrate addition measured after 36 secs by spectrophotometric analysis; settings: Homo sapiens
[2] = system: Prostaglandin G/H synthase 2 (COX-2); assay: Inhibition of COX-2 (unknown origin)-mediated TMPD oxidation using PGG2 as substrate at 100 uM incubated 15 mins prior to substrate addition measured after 36 secs by spectrophotometric analysis; settings: Homo sapiens

| inhibition [1] [%] | inhibition [2] [%] | Structure (SMILES) |
| --- | --- | --- |
| < 1 | 17.3 | Cc1cc(C)c2oc(-c3ccc(C)c(NC(=O)c4cccc([N+](=O)[O-])c4)c3)nc2c1 |
| 3.8 | 8.2 | CC(c1ccccc1)N1C(=O)c2ccc(C(=O)Nc3cc(Cl)ccc3C(=O)O)cc2C1=O (centres undefined) |
